Consider one compound from patent US20260193179A9 (priority 2018, published 2026).

Amino acid sequences for entries named in this document (tags omitted). Residues count along the entry.
UniProt O00187, 445-686: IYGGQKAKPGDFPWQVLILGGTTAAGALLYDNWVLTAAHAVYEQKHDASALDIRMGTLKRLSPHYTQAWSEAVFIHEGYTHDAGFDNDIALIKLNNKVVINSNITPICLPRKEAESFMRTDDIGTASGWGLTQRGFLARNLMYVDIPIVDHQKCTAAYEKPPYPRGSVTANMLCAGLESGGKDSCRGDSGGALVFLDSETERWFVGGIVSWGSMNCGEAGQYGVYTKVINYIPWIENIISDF
UniProt O00187, 298-444: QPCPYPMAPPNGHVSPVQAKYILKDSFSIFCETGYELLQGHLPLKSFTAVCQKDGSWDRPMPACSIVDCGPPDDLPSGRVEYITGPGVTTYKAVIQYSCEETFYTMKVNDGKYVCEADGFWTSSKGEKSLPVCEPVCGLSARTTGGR

The subject of assay [1] is MASP-2 (CCP1-CCP2-SP). The assay can be described thus: Enzymatic Assay for MASP-2 (fluorogenic substrate). The settings on record: selectivity for MASP-2 inhibition versus thrombin. The format is biochemical, human.
The target of assay [2] is MASP-2 (CCP1-CCP2-SP) (Homo sapiens, UniProt O00187). The assay can be described thus: Enzymatic Assay for MASP-2 (fluorogenic substrate). It is filed as biochemical.

Where a name gives a salt, the structure may show the parent alone.

Usually Ki stands for a measure of affinity in units of concentration, obtained from inhibition or displacement. For `Cc1nc(N)ccc1CNC(=O)C(C)NC(=O)[C@H]1C[C@H](c2cccc(-c3ccccc3)c2)CN1` (stereo in doubt) [compound 1359, (2R,4R)-4-([1,1′-Biphenyl]-3-yl)-N—((S)-1-(((6-amino-2-methylpyridin-3-yl)methyl)amino)-1-oxopropan-2-yl)pyrrolidine-2-carboxamide Di-trifluoroacetate salt], the “MASP-2 vs. thrombin selectivity” value in the assay on MASP-2 (CCP1-CCP2-SP) [1] is “** (≥5.0 to <25-fold)”. This compound also had a Ki at MASP-2 (CCP1-CCP2-SP) [2] of 0.5 to 2.5 µM.
